In patent US20210255205A1, “COMPOSITIONS AND METHODS FOR TREATING METABOLIC DISEASE” (THE REGENTS OF THE UNIVERSITY OF CALIFORNIA, priority 2018, published 2021):

Test system: ASTER domains from Aster-A, -B, and -C
Experiment: fluorescent NBD-cholesterol binding assay
Parameters: species or system mouse
Conditions: fluorescence binding assay

6-NBD-cholesterol
binding to the ASTER domains: did not bind
